PMC7665585, “Antidepressive effect of an inward rectifier K^+ channel blocker peptide, tertiapin-RQ” (PLoS ONE, 2020)

Molecular target: T1, rat ROMK (Rattus norvegicus, UniProt P35560)
T1 construct: expressed in transfected cells; host or cells: 293T cell line 208-4 (lentiviral transduction, GFP coexpressed)
T1 sequence (P35560 1-391): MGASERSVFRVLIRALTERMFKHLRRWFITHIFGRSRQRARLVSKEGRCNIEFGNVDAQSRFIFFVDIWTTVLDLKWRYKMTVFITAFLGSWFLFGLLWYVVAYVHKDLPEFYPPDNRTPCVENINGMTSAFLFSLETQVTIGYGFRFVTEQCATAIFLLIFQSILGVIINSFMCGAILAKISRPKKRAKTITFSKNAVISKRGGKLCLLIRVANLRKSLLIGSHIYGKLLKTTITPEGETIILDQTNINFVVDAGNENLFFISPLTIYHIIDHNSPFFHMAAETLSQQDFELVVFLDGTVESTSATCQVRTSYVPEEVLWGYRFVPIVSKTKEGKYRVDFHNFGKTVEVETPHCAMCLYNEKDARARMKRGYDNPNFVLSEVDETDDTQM
Assay: Whole-cell patch-clamp of ROMK currents in 208–4 cells
Format: cell-based
Conditions: blockade at 1 μM estimated from fitted Hill curve (four parameters), whole-cell conductance, n = 3–6, read-out: Activity (ROMK channel blocking activity, percentage of blockade at 1 μM)
Excerpt: The cDNAs for rat ROMK and mouse GIRK1, 2, and 4 were generously donated by Drs Mikio Hayashi (Kansai Medical University) and David Weaver (Vanderbilt University). The ROMK channels were stably expressed by a cell line, 208–4, which was transduced with lentiviral vectors coexpressing the channel and green fluorescent protein (GFP) as described previously. The GIRK genes, cloned in a pCMV6 plasmid (Origene Technologies Inc, Rockville, MD), were transiently expressed in 293T cells with calcium phosphate transfection. GIRK channel currents were recorded 24 h after transfection.
Cells grown on small cover glasses (3 × 18 mm) were placed in a recording chamber. Whole-cell currents were recorded in Tyrode solution using an Axopatch 200B amplifier (Axon Instruments, Foster City, CA) at 25°C. Tyrode solution contained (in mM): NaCl 140, KCl 5.4, NaH2PO4 0.33, CaCl2 2, MgCl2 1, HEPES 5, and glucose 5.5 (pH 7.4 adjusted with NaOH). […] Whole-cell currents were recorded 60 sec after the peptide application and those from 100 to 300 msec of the step pulses were averaged. […] Whole-cell conductance was calculated as the slope of the current-voltage (I-V) relationship from -140 mV to -100 mV and normalized to the initial value (0 μM TPN), in which BaCl2-resistant current was subtracted and indicted as a percentage.

`CC[C@H](C)[C@@H]1NC(=O)[C@H](CCCNC(=N)N)NC(=O)[C@H](CC(N)=O)NC(=O)[C@@H]2CSSC[C@@H](C(=O)NCC(=O)N[C@@H](CCCCN)C(=O)N[C@@H](CCCCN)C(N)=O)NC(=O)[C@H](CCCCN)NC(=O)[C@H](CCCCN)NC(=O)[C@H](Cc3c[nH]c4ccccc34)NC(=O)[C@H](CSSC[C@H](NC(=O)[C@H](CC(C)C)NC(=O)[C@H](C)N)C(=O)N[C@@H](CC(N)=O)C(=O)N2)NC(=O)[C@H](CCC(N)=O)NC(=O)[C@H](Cc2c[nH]cn2)NC(=O)[C@@H]2CCCN2C(=O)[C@H]([C@@H](C)CC)NC(=O)[C@H]([C@@H](C)CC)NC1=O` [Peptide 1, TPN-Q, reference compound] showed an inhibition at 1 µM greater than 80%.
